The source of these data is US5597822A, “Pharmaceutical compositions for the prevention and/or treatment a gastrointestinal diseases” (Egis Pharmaceutical, priority 1993, dated 1997).

In one data set the test system is NMRI strain mice. The following applies: mouse, in vivo, po. The method, then:
The acute toxicity was determined on NMRI strain mice of both sexes weighing 20 to 25 g each by using 6 animals for each dose. The compounds to be tested were administered perorally in a volume of 20 ml/kg, the highest dose applied was 1000 mg/kg. After the administration the animals were kept under usual laboratory conditions for 7 days.
The data given as "higher than" a certain value mean the highest dose administered without noting any death of animals.

In data set [1] the test system is gastric mucosa lesions induced by absolute ethanol. The data set can be described thus: Gastroprotective activity, test with absolute ethanol (gastric mucosa erosions). Format: in vivo, rat. To be noted: ED50 of gastric acid inhibition (Shay) related to ED50 of inhibition of gastric erosion. The procedure: Rats of both sexes weighing 200 to 250 g, each previously starved for 24 hours, were used in this experiment. The lesions of gastric mucosa were induced by the oral administration of absolute ethanol in a dose of 1 ml/animal. After one hour following the administration, the animals were killed by an overdose of ether, the stomach was excised and the alterations of gastric mucosa were examined. The lengths of the erosions were measured and summarized (expressed in mm) for each stomach to obtain the erosion index by calculating the average value of the group. The inhibition was calculated in percentage by comparing the value of the group treated with ethanol to that of the control group treated only with the vehicle. Various doses of the compounds to be tested were administered, perorally, in a volume of 5 ml/kg using a pretreatment time of 60 minutes. Eight rats were used for each dose. /A. Robert, Gastroenterology 77, 761-767 (1979)/.
^x Relative activity = ED50 value of the gastric acid inhibition
related to the ED50 value of the inhibition of the gastric erosion.

As for `NC[C@H]1CC[C@H](C(=O)Oc2ccc(CCC(=O)O)cc2)CC1` [cetraxate, trans-3-[4-[4-(aminomethyl)cyclohexylcarbonyloxy]phenyl]-propionic acid, reference compound], the LD50 p.o. entry in the data set on NMRI strain mice is listed as “higher than 1000 mg/kg”. Also, the “Relative activity related to the inhibition of the free acid” value in data set [1] is on record as “higher than 4”.
